Source: ChEMBL document CHEMBL4138147, “Discovery of a fluorescent probe with HDAC6 selective inhibition” (Eur J Med Chem, 2017)

By UniProt entry, the sequences of proteins in these tests, tags left out. Where a name states a change or a piece, a line headed by the entry shows the natural chain unless it says otherwise.
UniProt P56524: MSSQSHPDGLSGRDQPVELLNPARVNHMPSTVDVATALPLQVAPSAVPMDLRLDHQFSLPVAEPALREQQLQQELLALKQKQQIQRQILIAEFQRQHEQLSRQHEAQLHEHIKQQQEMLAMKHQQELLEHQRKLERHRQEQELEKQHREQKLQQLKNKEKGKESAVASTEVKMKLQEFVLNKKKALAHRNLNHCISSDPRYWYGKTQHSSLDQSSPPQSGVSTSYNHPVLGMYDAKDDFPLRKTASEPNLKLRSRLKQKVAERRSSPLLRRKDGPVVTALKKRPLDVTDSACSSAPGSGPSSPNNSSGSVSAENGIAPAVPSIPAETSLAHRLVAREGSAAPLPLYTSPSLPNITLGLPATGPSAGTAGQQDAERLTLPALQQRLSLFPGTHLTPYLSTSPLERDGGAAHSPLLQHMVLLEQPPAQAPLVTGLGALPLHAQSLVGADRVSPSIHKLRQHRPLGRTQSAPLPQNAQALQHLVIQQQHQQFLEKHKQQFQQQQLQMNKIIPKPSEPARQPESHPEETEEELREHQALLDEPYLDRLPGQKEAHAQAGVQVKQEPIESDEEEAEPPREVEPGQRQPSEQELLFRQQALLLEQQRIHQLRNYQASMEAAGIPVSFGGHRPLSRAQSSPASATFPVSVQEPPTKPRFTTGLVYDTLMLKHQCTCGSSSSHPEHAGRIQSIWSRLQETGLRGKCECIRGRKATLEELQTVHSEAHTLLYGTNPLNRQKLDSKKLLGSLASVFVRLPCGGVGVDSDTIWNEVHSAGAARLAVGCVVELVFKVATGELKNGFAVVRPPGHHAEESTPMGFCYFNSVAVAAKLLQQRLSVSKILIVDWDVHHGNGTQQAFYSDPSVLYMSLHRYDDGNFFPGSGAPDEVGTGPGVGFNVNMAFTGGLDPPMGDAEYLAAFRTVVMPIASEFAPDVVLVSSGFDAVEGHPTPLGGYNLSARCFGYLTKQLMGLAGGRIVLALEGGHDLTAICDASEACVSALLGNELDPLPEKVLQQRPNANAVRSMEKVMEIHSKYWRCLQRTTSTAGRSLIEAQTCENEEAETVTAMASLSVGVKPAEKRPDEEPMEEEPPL

Molecular target: Histone deacetylase 4 (Homo sapiens, UniProt P56524)

IC50: > 30 µM
SMILES: CN1CCc2c(c3ccccc3n2Cc2ccc(C(=O)NO)cc2)C1 [TUBASTATIN A]
